Data published in US20130210167A1, “IMMUNOASSAY FOR PYRROLIDINOPHENONES” (RANDOX LABORATORIES LIMITED, priority 2012, published 2013).

System: polyclonal antibody raised to Immunogen IV
Assay: Competitive biochip immunoassay of pyrrolidinophenones and potential cross-reactants (Evidence Investigator)
Type: binding, sheep

In the case of `CN1CC[C@]23c4c5ccc(O)c4O[C@H]2C(=O)CC[C@H]3[C@H]1C5` [Hydromorphone], the “% Cross-reactivity” value is reported as less than 1%.
